Apparent affinities of Ab-14 variants for a coronavirus HR2 peptide

From the AlphaSeq antibody data of Li et al. 2023 (doi:10.1038/s41467-023-39022-2), copy in the FLAb collection.

Antigen: PDVDLGDISGINAS, a 14-residue peptide of the SARS-CoV-2 spike HR2 region.

Parent: Ab-14, a human scFv built as VH, the linker GGGGSGGGGSGGGGS, VL. Only the CDRs of the light chain vary.
VH: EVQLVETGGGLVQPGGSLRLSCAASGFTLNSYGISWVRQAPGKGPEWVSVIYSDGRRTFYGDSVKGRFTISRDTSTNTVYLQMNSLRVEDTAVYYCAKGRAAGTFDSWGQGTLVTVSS
VL: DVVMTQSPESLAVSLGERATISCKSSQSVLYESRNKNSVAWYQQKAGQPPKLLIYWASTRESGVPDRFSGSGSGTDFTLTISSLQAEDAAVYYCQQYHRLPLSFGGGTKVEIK

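These sequences belong to a second round, designed from the earlier measurements on random variants of the parent. Their group label is 14L_GP_HC (GP: Gaussian process model; HC: hill climbing; a sequence that several methods proposed may carry one label only). Affinity was read by AlphaSeq, a pooled yeast mating assay with surface-displayed partners. Pairs that bind mate more often; barcode pairs of the diploids are counted by sequencing. The ratio of observed to expected reads was calibrated, replicate by replicate, on BCL2-family standards whose Kd was known from biolayer interferometry. The assay was run in six technical replicates.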

Positions count from residue 1 of the parent VL; S25C puts C in place of S. Numbers give log10(Kd / nM), so 0 is 1 nM and 3 is 1 µM. Smaller is tighter. Averages over replicates are reported, and they cover detected replicates only. A pair that was not seen in that replicate is written "ND"; this usually means weak binding, but a binder can also be missed. Nonspecific signal, from three strains lacking the peptide, appeared in 4% of pairings of all light chain designs, centred on 2.64 (5% of these signals below 1.59); values are not corrected for it. The control count says in how many pairings with the empty strains this scFv gave a signal, with their mean in brackets.

changes,log10 Kd (nM) by replicate,mean log10 Kd (nM),signal with controls
S25C+Y31F+W56D+T59F,1.66 / 0.72 / 1.48 / 0.99 / 0.98 / 0.92,1.13,0/18
S25L+S26Q+Q27M+V29T,0.74 / 0.62 / 0.61 / 0.54 / 0.79 / 0.83,0.69,0/18
S25L+S26Q+W56H+S62D+Q95K,1.90 / 1.25 / 0.57 / 0.51 / 0.90 / 1.86,1.17,0/18
S25I+Y31G+S33Q+W56D+A57I,0.04 / 0.12 / -0.24 / -0.35 / -0.27 / -0.04,-0.12,1/18 (2.45)
S25F+L30Q+N35T+W56N,0.04 / -0.34 / -0.36 / -0.16 / -0.19 / 0.08,-0.16,1/18 (2.50)
V29W+K36F+N37W+W56A,1.66 / 2.50 / ND / 2.71 / 1.62 / 2.32,2.16,0/18
K24H+S25L+Q27P+S28V+W56N,-0.20 / -0.34 / -0.43 / -0.29 / -0.30 / -0.13,-0.28,0/18
S26L+Y31L+K36F+W56H+S62D,0.48 / 0.27 / 0.08 / 0.16 / 0.30 / 0.44,0.29,0/18
Q27I+V29Y+Y31I+W56E+S62E,-0.66 / -0.69 / -0.51 / -0.62 / -0.62 / -0.79,-0.65,0/18
S25L+S26R+V29Q+W56Q+S103T,-0.22 / -0.31 / -0.49 / -0.08 / -0.44 / 0.06,-0.25,1/18 (1.91)
S26L+L30V+S33D+W56H+S62D,0.15 / -0.06 / -0.04 / -0.34 / 0.10 / -0.19,-0.06,1/18 (1.56)
Q27V+V29Y+Y31G+W56E,0.06 / 0.14 / -0.04 / 0.14 / -0.03 / -0.07,0.03,0/18
Q27I+V29Y+W56E+S62L+S103M,1.43 / 1.44 / 1.56 / 1.37 / 2.41 / 2.20,1.74,1/18 (2.19)
V29E+Y31N+W56D,0.20 / 0.27 / 0.00 / -0.15 / -0.23 / -0.06,0.00,0/18
V29F+K36V+W56G+E61C,0.46 / 0.48 / 0.60 / 0.32 / 0.22 / 0.79,0.48,0/18
K24L+Q27I+V29Y+R34P+W56E+S62W,1.07 / 0.47 / 1.14 / 1.09 / 0.95 / 2.25,1.16,0/18
L30P+Y31M+W56N,0.28 / 0.24 / 0.07 / -0.06 / 0.19 / 0.19,0.15,2/18 (2.62)
Q27W+Y31L+W56D,0.29 / 0.15 / 0.01 / -0.02 / -0.26 / 0.25,0.07,1/18 (2.24)
S25G+Q27I+V29Y+Y31Q+W56E,0.16 / 0.29 / 0.23 / 0.01 / 0.31 / 0.35,0.23,1/18 (1.62)
S25M+S28E+V29K+W56D,-0.20 / -0.16 / -0.27 / -0.13 / 0.00 / -0.01,-0.13,2/18 (2.90)
S25L+S26R+V29T+L30K+K36Q+W56G,0.31 / 0.47 / 0.53 / 0.10 / -0.11 / 0.33,0.27,1/18 (2.89)
S26L+Q27T+R34N+W56H+S62D,-0.13 / 0.40 / 0.11 / -0.10 / 0.42 / 0.29,0.17,0/18
S25A+S26M+V29W+W56G+S103I,1.16 / 0.25 / 0.30 / -0.33 / 0.06 / -0.03,0.24,0/18
S26L+V29G+W56H+S62D+Q96L,0.62 / 0.72 / 0.33 / 0.54 / 0.00 / 0.33,0.43,1/18 (1.82)
S25Q+Y31F+W56E,0.22 / 0.14 / 0.18 / 0.32 / 0.02 / 0.20,0.18,0/18
Q27I+V29S+N35M+W56E,0.30 / 0.05 / 0.08 / 0.25 / -0.01 / 0.20,0.15,0/18
K24H+Q27P+L30E+W56N+S62Q,0.62 / 0.96 / 0.67 / 0.95 / 0.48 / 0.34,0.67,0/18
Q27W+V29Y+Y31G+R34G+W56E,0.15 / 0.14 / 0.21 / -0.06 / 0.19 / 0.54,0.19,0/18
S28V+V29Y+W56D,0.26 / 1.20 / 1.09 / 0.18 / 0.32 / 0.19,0.54,0/18
S26L+Q27G+V29Q+L30E+W56H+S62D+R99C,1.29 / 1.65 / 1.48 / 1.96 / 1.31 / 1.19,1.48,0/18
K24H+Q27P+L30N+R34G+W56N,0.23 / 0.22 / 0.11 / 0.24 / 0.22 / 0.35,0.23,1/18 (2.19)
Q27I+V29Y+R34G+W56N+A57G,2.33 / 2.15 / 2.03 / 2.24 / 3.76 / 2.47,2.49,0/18
S25F+V29E+L30A+N35T+W56N,0.63 / 0.40 / 0.45 / 0.17 / 0.10 / 0.14,0.31,1/18 (3.18)
K24H+S25L+Q27D+W56G+S103N,0.09 / -0.05 / -0.14 / -0.08 / -0.16 / 0.00,-0.06,3/18 (3.20)
K24L+Q27E+V29Y+R34P+W56E,0.86 / 1.00 / 0.71 / 0.17 / 1.10 / 0.79,0.77,0/18
S25L+V29W+W56S+A57G,-0.50 / -0.32 / -0.19 / -0.42 / -0.46 / -0.22,-0.35,0/18

The 5 strongest on average among those seen in every replicate, once more:

changes,log10 Kd (nM) by replicate,mean log10 Kd (nM),signal with controls
Q27I+V29Y+Y31I+W56E+S62E,-0.66 / -0.69 / -0.51 / -0.62 / -0.62 / -0.79,-0.65,0/18
S25L+V29W+W56S+A57G,-0.50 / -0.32 / -0.19 / -0.42 / -0.46 / -0.22,-0.35,0/18
K24H+S25L+Q27P+S28V+W56N,-0.20 / -0.34 / -0.43 / -0.29 / -0.30 / -0.13,-0.28,0/18
S25L+S26R+V29Q+W56Q+S103T,-0.22 / -0.31 / -0.49 / -0.08 / -0.44 / 0.06,-0.25,1/18 (1.91)
S25F+L30Q+N35T+W56N,0.04 / -0.34 / -0.36 / -0.16 / -0.19 / 0.08,-0.16,1/18 (2.50)

Values of this round are not directly comparable with the first-round values of the same sequences. The parent sequence was in this pool as ten entries: three were never detected, three once, and four in most replicates, with averages from 0.34 to 2.37. The authors' rule: three or more of the six replicates give a measured affinity, fewer mean a poor binder.